The numbers were not newly measured in patent US11713305B2, “Zinc sensors for in vivo imaging of beta-cell function by MRI” (The Board of Regents of the University of Texas System, priority 2017, dated 2023), which cites them from elsewhere.

The conditions of this data set: Stewart et al., 2003; read-out: binding affinity for Zn^2+ ions; cited from earlier work.

Take “Human serum albumin: the most abundant protein in plasma”: the Kd is 0.0295 µM.
